Where “and” joins values, the source holds several entries; their conditions need not be identical. Identical values can stand only once. Like-named read-outs stand apart in the source and are kept apart here.
Tests used:
HIV-1 [1] = test system: HIV-1
Experimental: Because of low cell numbers in the baseline sample, LUNA-06 (combination arm, participant stopped at day 7) was excluded from this primary end point analysis.
For quantification of CA US HIV-1 RNA, CD4^+ T cells were isolated from peripheral blood mononuclear cells (PBMCs) by negative selection using EasySep Human CD4^+ T Cell Enrichment Cocktail ([…] Technologies). Isolation of CD4^+ T cells was performed on ice or at 4°C (unless indicated otherwise by the manufacturer). Approximately 1.5 × 10^6 CD4^+ T cells were lysed in triplicate with TRI reagent. Total RNA was isolated by the phenol/chloroform isolation method following the manufacturer’s instructions. A minimum of 150 ng of total RNA was deoxyribonuclease (DNase)–treated following the manufacturer’s instructions (DNase I, Amplification Grade, Invitrogen), and complementary DNA (cDNA) synthesis was performed in duplicate with SuperScript II (Invitrogen) following the manufacturer‘s instructions. Absolute quantification of CA US HIV-1 RNA was performed following a modified version of Pasternak et al. methodology ([72]). Briefly, the first round of nested amplification was performed in a final volume of 25 μl using 10 μl of cDNA, 2.5 μl of 10× PCR buffer (Life Technologies), 1 μl of 50 mM MgCl2 (Life Technologies), 1 μl of 10 mM deoxynucleotide triphosphate (dNTP) (Life Technologies), 0.075 μl of 100 μM US forward primer, 0.075 μl of 100 μM US reverse 1 primer, and 0.2 μl of Platinum Taq polymerase (Life Technologies) at 95°C for 5 min, followed by 15 cycles at 95°C for 30 s, 55°C for 30 s, and 72°C for […]. The second round of amplification was performed in a final volume of 25 μl using 2 μl of preamplified cDNA, 2.5 μl of […] PCR buffer (Life Technologies), 1 μl of 50 mM MgCl2 (Life Technologies), 1 μl of 10 mM dNTPs (Life Technologies), 0.05 μl of 100 μM US forward primer, 0.05 μl of 100 μM US reverse 2 primer, 0.0375 μl of US probe, and 0.2 μl of Platinum Taq polymerase (Life Technologies) at 95°C for 5 min, followed by 45 cycles at 95°C for 30 s and 60°C for 1 min. The list of primers and probe is available in table S9. The absolute number of US copies in the PCR was calculated using a standard curve ranging from 2 to 512 copies of a plasmid containing the full-length HIV-1 genome (pNL4.3.Luc.R-E-). […] The quantity of CA US HIV-1 RNA was expressed as the number of copies per 150 ng of input RNA in reverse transcription.
The measurements related to the end points CA US HIV-1 RNA, MS HIV-1 RNA, plasma HIV-1 RNA, and drug plasma levels were described as median with IQR or full range. […] The fold change difference per study arm from pretreatment CA US HIV-1 RNA levels to the time points 6 hours, day 14, and day 42 after first dosing was calculated by adding up the fold change per individual divided by the total number of measurements available per time point. We analyzed the primary end point by a generalized estimating equation model to evaluate whether any difference in the CA US HIV-1 RNA existed at any time point during the trial in any of the three interventional arms compared to the control arm. An interaction term of time and treatment was included. […] The difference between the observed and expected amount of CA US HIV-1 RNA was calculated, and combination therapy was considered synergistic if the difference and its 95% confidence interval were >0. Because of the number of participants in this pilot, all secondary end points were exploratory.

BAF complex = BAF complex target gene expression (IL-10, SOCS3, CBX7; control B-ACT) by RT-qPCR in participants; type: in vivo, human; conditions: individual participants, one value each, listed as VPA
Text: We reasoned that the effect on the expression of these gene targets at later time points (days 14 and 42) would be less useful as specific biomarker of BAF complex inhibition due to treatment interruptions and potential induction via other pathways. […] These findings are consistent with, and might be the consequence of, the generally lower plasma pyrimethamine Ctrough in participants that received the combined intervention regimen compared to those that received solely pyrimethamine.
RT-qPCR reactions were conducted using GoTaq qPCR Master Mix (Promega) following the manufacturer’s protocol. The following thermal cycling protocol was used for amplification: 3 min at 95°C, followed by 40 cycles of 95°C for 10 s and 60°C for 30 s. Expression data were calculated using the 2^−∆∆Ct methodology ([73]). Cyclophilin A was used as a housekeeping gene for the analysis. The list of primers is available in table S9.

HIV-1 [2] = conditions: before treatment (day 0)
Experimental: Here, the measurement from the cells obtained >1 year after the last visit was used.
The frequency of CD4^+ T cells expressing MS HIV-1 RNA was determined using TILDA with some modifications to the protocol described previously by our group ([68]). Briefly, total CD4^+ T cells were isolated from PBMCs by negative magnetic selection using EasySep CD4^+ Human CD4^+ T Cell Enrichment kit ([…] Technologies). Following isolation, 1.5 × 10^6 CD4^+ T cells/ml were rested in complete RPMI 1640 for 5 to 8 hours before 12 hours of stimulation with PMA (100 ng/ml) and ionomycin (1 μg/ml) (both from Sigma-Aldrich). After stimulation, CD4^+ T cells were washed and resuspended in serum-free RPMI 1640. Cells were counted and serially diluted accordingly: 1.8 × 10^6 cells/ml, 9 × 10^5 cells/ml, 3 × 10^5 cells/ml, and 1 × 10^5 cells/m. […] Positive wells at each dilution were recorded and used to determine the frequency of cells expressing tat/rev MS HIV-1 RNA by the maximum likelihood method.

CCCC(CCC)C(=O)O [valproic acid]
Mean fold change in CA US HIV-1 RNA (HIV-1 [1]; 6 hours after first dose, arm mean): 1.14 fold | Median fold change in CA US HIV-1 RNA (normalized to day 0, 0 hours) (HIV-1 [1]; day 0, t = 0 hours (pretreatment baseline, normalisation point)): 1 fold | Median fold change in CA US HIV-1 RNA (normalized to day 0, 0 hours) (HIV-1 [1]; day 0, t = 6 hours after first dose, arm median, PLWH on cART, oral PYR 200 mg day 1 then 100 mg once daily, VPA 30 mg/kg per day): 1.0667 fold | Median fold change in CA US HIV-1 RNA (normalized to day 0, 0 hours) (HIV-1 [1]; day 0, t = 6 hours after first dose, arm median, PLWH on cART, oral PYR 200 mg day 1 then 100 mg once daily, VPA 30 mg/kg per day, listed as VPA): 1.1 fold | Median fold change in CA US HIV-1 RNA (normalized to day 0, 0 hours) (HIV-1 [1]; day 14 (end of treatment), arm median, PLWH on cART): 1.2401 fold | Median fold change in CA US HIV-1 RNA (normalized to day 0, 0 hours) (HIV-1 [1]; day 42 (28 days after end of treatment), arm median, PLWH on cART): 1.2377 fold | Fold-induction in B-ACTIN gene expression at Day 0, 6 hours relative to Day 0, pretreatment (BAF complex; control gene): 2.5 and 0.94 and 0.9 and 0.69 and 0.61 and 0.68 and 1.12 | Fold-induction in CBX7 gene expression at Day 0, 6 hours relative to Day 0, pretreatment (BAF complex): 1.16 and 0.9 and 0.54 and 0.23 and 0.87 and 0.82 and 1.71 | Fold-induction in IL-10 gene expression at Day 0, 6 hours relative to Day 0, pretreatment (BAF complex): 0.42 and 1.25 and 1.10 and 0.94 and 1.87 and 0.64 | Fold-induction in SOCS3 gene expression at Day 0, 6 hours relative to Day 0, pretreatment (BAF complex): 0.38 and 1.92 and 0.53 and 0.85 and 2.47 and 0.67 and 0.52 | Median inducible reservoir (TILDA) (HIV-1 [2]): 14.8 cells per million CD4+ T cells
